Converted amounts (≈) assume the structure as drawn.
For `CC(C)NP(=O)(F)NC(C)C`, the solubility was 439 mM (≈ 80 mg/mL).

— the OPERA property sets (Mansouri et al. 2018)
